Tested on: 2008 human ovarian carcinoma cells
Experiment: Colony forming assay, effect of EGF on sensitivity to cytotoxic agents
Type: cell-based
Details: for effect of EGF on sensitivity of 2008 cells to the agent (in words): EGF and the cytotoxic agent concurrently for 1 h; for Dose modifying factor (ratio of the IC50 values in control and EGF-treated cells): mean ± SD of at least 3 experiments

| Substance | effect of EGF on sensitivity of 2008 cells to the agent (in words) | Dose modifying factor (ratio of the IC50 values in control and EGF-treated cells) |
| --- | --- | --- |
| 4-hydroperoxycyclophosphamide | no significant effect | 0.9 ± 0.5 |
| tetraplatin | significant increase in sensitivity | 1.6 ± 0.1 |

From patent publication US5597798A, “Taxol and epidermal growth factor used to enhance treatment of ovarian cancer” (The Regents of the University of California, priority 1994, dated 1997)
